Measurements: US8642657B2 (Gruenenthal GmbH, priority 2003, dated 2014)

Sequences of proteins named here, by UniProt entry; tags and fusion partners are left off.
UniProt O35433, whole entry: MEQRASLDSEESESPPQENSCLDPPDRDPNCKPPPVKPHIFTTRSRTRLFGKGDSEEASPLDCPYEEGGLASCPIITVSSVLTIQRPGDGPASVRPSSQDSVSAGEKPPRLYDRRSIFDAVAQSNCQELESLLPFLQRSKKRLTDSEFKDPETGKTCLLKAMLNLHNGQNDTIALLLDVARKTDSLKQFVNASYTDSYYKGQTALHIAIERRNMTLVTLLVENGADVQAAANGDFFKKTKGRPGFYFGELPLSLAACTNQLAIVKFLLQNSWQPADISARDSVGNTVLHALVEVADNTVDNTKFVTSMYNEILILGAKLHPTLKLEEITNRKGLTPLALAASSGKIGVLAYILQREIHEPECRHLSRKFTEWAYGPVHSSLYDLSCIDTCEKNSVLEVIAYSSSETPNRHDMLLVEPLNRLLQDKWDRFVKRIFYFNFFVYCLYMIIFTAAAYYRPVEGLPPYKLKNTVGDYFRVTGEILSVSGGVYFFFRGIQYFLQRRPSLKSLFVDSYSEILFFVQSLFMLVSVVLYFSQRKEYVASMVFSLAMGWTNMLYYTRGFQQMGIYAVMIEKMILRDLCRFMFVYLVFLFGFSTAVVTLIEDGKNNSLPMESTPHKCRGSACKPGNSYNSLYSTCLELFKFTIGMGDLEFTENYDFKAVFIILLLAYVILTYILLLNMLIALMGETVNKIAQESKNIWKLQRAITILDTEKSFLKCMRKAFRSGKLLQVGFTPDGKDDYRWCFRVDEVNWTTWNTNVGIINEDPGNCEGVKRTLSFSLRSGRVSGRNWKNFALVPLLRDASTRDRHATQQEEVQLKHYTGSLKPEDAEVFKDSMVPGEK

Columns and labels:
rat VR1 [1] = molecular target: T1, rat VR1 (Rattus norvegicus, UniProt O35433); experiment: [3H]resiniferatoxin (RTX) competition binding assay, VR1-transfected CHO cells
T1 construct: expressed in transfected cells
Experimental: The pUHG102 VR1 plasmid was transfected into CHO cells containing the pTet Off regulatory plasmid (Clontech). In these cells, expression of the VR1 is repressed in the presence of tetracycline but is induced upon removal of the antibiotic. Stable clones were isolated in culture medium containing puromycin (10 μg/mL) and maintained in HAM F12 medium supplemented with tetracycline (1 μg/mL), 5 μg/ml geniticin, 25 mM HEPES, 10% FBS. Cells utilized for assays were grown in culture medium without antibiotic for 48 h before use. Cells were seeded in T75 cell culture flasks in media without antibiotics and grown to approximately 90% confluence. The flasks were then washed with PBS and harvested in 0.25% trypsin, 1 mM EDTA. The cells were pelleted by gentle centrifugation and stored at −20° C. until assay.
Competition Binding Assay
Binding studies with [^3H]resiniferatoxin (RTX) were carried out as described previously with minor modifications (Szallasi et al., 1992). Binding assay mixtures were set up on ice and contained 50-100 pM [^3H]RTX, various concentrations of competing ligands, 0.25 mg/mL BSA (Cohn fraction V), and about 5×10^5 VR1-transfected cells. The final volume was adjusted to 350 μL with DPBS with Ca^2+ and Mg^2+ and 0.25 mg/mL bovine serum albumin. Non-specific binding was determined in the presence of 100 nM nonradioactive RTX. The binding reaction was initiated by transferring the assay mixtures to a 37° C. water bath and was terminated after a 60 min incubation period by cooling the tubes on ice. To reduce non-specific binding, 200 μg/ml α-glycoprotein was added. Membrane-bound RTX was then separated from the free by pelleting the membranes in a Beckman 12 benchtop centrifuge (15 min, maximal velocity), the tips of the tubes containing the pellets were cut off, and the radioactivity was determined by scintillation counting. Equilibrium binding parameters (Ki and cooperativity) were determined by fitting the Hill equation to the measured values with the aid of the program MicroCal Origin 6.0.
Initial stocks were dissolved in DMSO. […]

rat VR1 [2] = molecular target: T1, rat VR1; experiment: 45Ca2+-uptake assay in CHO/VR1 cells, antagonism of capsaicin-stimulated uptake; type: cell-based; details: 45Ca2+ uptake stimulated by 50 nM capsaicin
Experimental: Initial stocks were dissolved in DMSO. For the binding assays, compounds were diluted in with DPBS with Ca^2+ and Mg^2+ and 0.25 mg/mL bovine serum albumin. For the calcium uptake assays, compounds were diluted in DMEM with 0.25 mg/mL bovine serum albumin.
Molecules were characterized to determine whether they were full agonists, partial agonists, or antagonists. For studies of ^45Ca^2+ uptake by CHO/VR1 cells (Tet-off cells), the cells were plated in 24-well plates to yield a cell density 20-40% of that required to produce confluence. The next day the medium was changed to remove the tetracycline and induce VR1 expression. Experiments were performed approximately 36-40 hours after induction. For ^45Ca^2+ uptake assay, cells were incubated for 5 min at 37° C. in a total volume of 400 μL of serum free DMEM (containing 1.8 mM CaCl2) in the presence of 0.25 mg/mL BSA (Sigma), 1 μCi/mL ^45Ca^2+ (5-30 Ci/g from ICN, CA), and increasing concentrations of the compound to be tested. Immediately after the incubation, extracellular ^45Ca^2+ was removed by washing the cells three times with cold DPBS (containing 1.8 mM CaCl2). Then 400 μl RIPA buffer (50 mM Tris pH 7.4; 150 mM NaCl; 1% Triton X-100; 0.1% SDS; 1% sodium deoxycholate) was added to each well in order to lyse the cells. Plates were shaken slowly for 20 min; then 306 μL of cell lysate was transferred from each well into a scintillation vial and radioactivity was determined by scintillation counting. For each data point in each experiment, four wells were assayed. Data from these experiments were analyzed by computer fit to the Hill equation. At least 3 separate experiments were carried out for each compound. In order to determine antagonist activity, studies were performed in exactly the same fashion with the exception that 50 nM capsaicin was added to the assay mixture to stimulate ^45Ca^2+ uptake.

[3] = competition with [3H]RTX, rat VR1 in CHO cells, read-out: Ki (nM) Binding Affinity

| Compound | Ki (rat VR1 [1]; [3]) | Ki (rat VR1 [2]) | Ki (rat VR1 [1]) |
| --- | --- | --- | --- |
| CC(C(=O)NCC=C(c1ccccc1)c1ccccc1)c1ccc(NS(C)(=O)=O)c(F)c1 (stereo not drawn) [4-25, N-(3,3-Diphenyl-2-propenyl)-2-[3-fluoro-4-(methylsulfonylamino)phenyl]propionamide] | 21.5 nM | 14.2 nM |  |
| CC(C(=O)NCC=Cc1ccc(Cl)cc1)c1ccc(NS(C)(=O)=O)c(F)c1 (stereo not drawn) [4-20, N-[3-(4-Chlorophenyl)-2-propenyl]-2-[3-fluoro-4-(methylsulfonylamino)phenyl]propionamide] |  | 384 nM | 897 nM |
| CC(C(=O)NCCCc1ccc(Cl)cc1)c1ccc(NS(C)(=O)=O)c(F)c1 (stereo not drawn) [4-19, N-[3-(4-Chlorophenyl)propyl]-2-[3-fluoro-4-(methylsulfonylamino)phenyl]propionamide] | 466 nM | 135 nM |  |
